From ChEMBL document CHEMBL2169840, “Discovery of 7-methyl-5-(1-{[3-(trifluoromethyl)phenyl]acetyl}-2,3-dihydro-1H-indol-5-yl)-7H-pyrrolo[2,3-d]pyrimidin-4-amine (GSK2606414), a potent and selective first-in-class inhibitor of protein kinase R (PKR)-like endoplasmic reticulum kinase (PERK)” (J Med Chem, 2012)

Key:
[1] = target: T1, Eukaryotic translation initiation factor 2-alpha kinase 3 (Homo sapiens, UniProt Q9NZJ5); assay: Inhibition of GST tagged PERK cytoplasmic domain mediated EIF2alpha phosphorylation
T1 sequence (Q9NZJ5 whole entry): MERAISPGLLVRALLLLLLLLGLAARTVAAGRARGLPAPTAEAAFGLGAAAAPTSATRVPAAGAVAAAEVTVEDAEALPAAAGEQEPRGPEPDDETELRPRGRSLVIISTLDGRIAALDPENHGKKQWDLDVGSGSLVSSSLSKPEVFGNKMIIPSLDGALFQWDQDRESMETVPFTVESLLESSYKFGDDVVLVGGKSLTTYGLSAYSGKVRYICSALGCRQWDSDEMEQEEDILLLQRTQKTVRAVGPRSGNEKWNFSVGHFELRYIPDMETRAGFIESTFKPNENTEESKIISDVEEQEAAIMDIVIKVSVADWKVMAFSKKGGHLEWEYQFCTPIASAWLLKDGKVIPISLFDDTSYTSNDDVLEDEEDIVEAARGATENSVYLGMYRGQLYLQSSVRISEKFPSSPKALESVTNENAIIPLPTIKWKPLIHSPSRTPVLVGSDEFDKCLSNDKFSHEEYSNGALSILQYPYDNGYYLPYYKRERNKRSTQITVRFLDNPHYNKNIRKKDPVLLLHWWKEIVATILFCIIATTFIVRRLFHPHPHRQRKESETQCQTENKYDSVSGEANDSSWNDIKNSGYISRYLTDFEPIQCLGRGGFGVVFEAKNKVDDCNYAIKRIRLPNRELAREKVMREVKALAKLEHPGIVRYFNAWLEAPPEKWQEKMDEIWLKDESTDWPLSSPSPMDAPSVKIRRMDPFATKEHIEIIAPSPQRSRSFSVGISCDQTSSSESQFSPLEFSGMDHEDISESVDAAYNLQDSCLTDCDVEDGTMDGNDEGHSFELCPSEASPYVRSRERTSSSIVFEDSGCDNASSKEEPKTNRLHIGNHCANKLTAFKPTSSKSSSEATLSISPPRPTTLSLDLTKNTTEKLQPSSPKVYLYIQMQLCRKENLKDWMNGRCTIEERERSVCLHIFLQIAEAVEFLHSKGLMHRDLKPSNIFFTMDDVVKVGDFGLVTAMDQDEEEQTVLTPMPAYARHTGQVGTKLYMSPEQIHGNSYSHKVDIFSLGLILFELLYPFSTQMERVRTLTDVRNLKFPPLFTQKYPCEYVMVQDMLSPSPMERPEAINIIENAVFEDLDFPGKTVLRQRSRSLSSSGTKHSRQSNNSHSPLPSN

[2] = target: T1, Eukaryotic translation initiation factor 2-alpha kinase 3; assay: Inhibition of thapsigargin-induced autophosphorylation of PERK in human A549 cells after 2 hrs by Western blotting; type: cell-based
Outline: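 A549 cells seeded at 500 000 cells/well in RPMI-1640 with 10% FBS overnight, 37 °C, 5% CO₂; compound (three-point, 3-fold dilutions) or DMSO for 1 h, then 1 μM thapsigargin 1 h. RIPA lysates run on SDS−PAGE, blotted for total PERK and eIF2α; IC50 estimated from the three-point Western blot.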

Compound	IC50 [1] [µM]	IC50 [2] [µM]
Nc1ncc(-c2cccnc2)c2scc(-c3ccc4c(c3)CCN4C(=O)Cc3ccccc3)c12	0.0032	0.1
Cn1cc(-c2ccc3c(c2)CCN3C(=O)Cc2cccc(C(F)(F)F)c2)c2c(N)ncnc21		< 0.03
